# The list shows a part of the results, in another mix than the full data. Entries with a potency or affinity are not part of this list. Calls of active or inactive are those of the source.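 The calls were made as follows: active = displacement of at least 50% at 20 µM, with a fluorescence ratio check between 0.3 and a set limit; inactive = the rest.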
# By UniProt entry, the sequences of proteins in these tests, tags left out. Where a name states a change or a piece, a line headed by the entry shows the natural chain unless it says otherwise.
# UniProt Q8IUQ4: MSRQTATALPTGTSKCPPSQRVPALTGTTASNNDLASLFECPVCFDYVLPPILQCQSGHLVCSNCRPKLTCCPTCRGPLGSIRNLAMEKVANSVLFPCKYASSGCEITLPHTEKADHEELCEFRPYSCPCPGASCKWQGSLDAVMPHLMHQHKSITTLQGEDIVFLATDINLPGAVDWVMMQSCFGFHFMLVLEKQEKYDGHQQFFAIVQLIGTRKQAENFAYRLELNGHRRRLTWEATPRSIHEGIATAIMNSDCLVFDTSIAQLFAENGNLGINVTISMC
# Target: E3 ubiquitin-protein ligase SIAH1 (Homo sapiens) (UniProt Q8IUQ4)
# Assay: blockers of Siah-1 interaction with plectin peptide – biochemical, fluorescence polarization, rhodamine-plectin, uHTS, primary screen (AID 1817);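 also: plate controls were Siah plus tracer with DMSO for no effect and tracer alone without Siah for full effect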
# Details: Siah-1 / rhodamine-plectin peptide fluorescence polarization; at 20 µM; active compounds read high
row,SMILES,displacement
1,Cc1ccc(C(=O)OC2CN3CCC2CC3)cc1 (stereo not drawn),inactive: 4.1%
2,O=C(/C=C/c1ccccc1)OC1CN2CCC1CC2 (stereo not drawn),inactive: -5.2%
3,CN(C)C1(CNC(=O)c2ccc(S(C)(=O)=O)cc2)CCCCC1,inactive: 2.9%
4,O=P1(Nc2ncccn2)COc2ccccc2OC1,inactive: -2.2%
5,O=P1(Nc2ccc(Br)cn2)COc2ccccc2OC1,inactive: -2.2%
6,Cc1ccc(OCC(=O)OC2CN3CCC2CC3)cc1 (stereo not drawn),inactive: 0.3%
7,O=[As](O)(c1cccs1)c1cccs1,inactive: -4.15%
8,Nc1cccc([As](=O)(O)c2ccccc2)c1,inactive: 3.7%
9,CCOP(=O)(Nc1ccc(C)cn1)OCC,inactive: 0.55%
10,O=P1(Nc2ccccn2)COc2ccccc2OC1,inactive: 0.6%
11,CCC1=CC2Cc3nc4ccc(Cl)cc4c(N)c3C(C1)C2 (stereo not drawn),inactive: 12%
12,CCOP(=O)(NC(=NC(C)c1ccccc1)NC(C)c1ccccc1)OCC (stereo not drawn),inactive: 4.1%
13,Clc1n[nH]nc1-c1nn[nH][15n]1,inactive: 6.7%
14,CC(C)(C)C(=O)NC(Sc1ncccn1)C(Cl)(Cl)Cl (stereo not drawn),inactive: 13.4%
15,O=[As](O)(c1ccccc1Br)c1ccccc1Br,inactive: 2.25%
16,CC(C)/C=N\N=C(\N)N[N+](=O)[O-],inactive: -1.9%
17,CN(C(=O)Cc1ccc(Cl)c(Cl)c1)[C@@H]1CCCC[C@H]1N1CCCC1,inactive: -0.3%
18,COc1cc(C(=O)NCC2(N3CCOCC3)CCCCC2)cc(Cl)c1OC(C)C,inactive: 4.6%
19,O=[As](O)(O)c1cccnc1,inactive: -1.2%

row,SMILES,displacement
1,CS(=O)(=O)c1ccc(Cl)c(NC(=O)COC(=O)C(O)(c2ccccc2)c2ccccc2)c1,inactive: 0.5%
2,O=C(OC1CN2CCC1CC2)c1ccc(Cl)cc1 (stereo not drawn),inactive: 1.5%
3,O=[As](O)(c1cccc(O)c1)c1cccc(O)c1,inactive: 4.2%
4,Cc1cccc(OCC(=O)OC2CN3CCC2CC3)c1 (stereo not drawn),inactive: 6%
5,CCCOP(=S)(Nc1nc(N)cc(=O)[nH]1)OCCC,inactive: -2.2%
6,Cc1ccc(NCCc2c([N+](=O)[O-])cc([N+](=O)[O-])cc2[N+](=O)[O-])cc1,inactive: 58.1%
7,Nc1cccc2c([As](=O)(O)O)cccc12,active: 56.8%
8,COc1cc(C2NCCC3(OCCO3)C2(C)C)cc(OC)c1OC (stereo not drawn),inactive: -0.6%
9,CCOP(=O)(Nc1cccc2ccccc12)OCC,inactive: -2.3%
10,CS(=O)(=O)c1cc([N+](=O)[O-])c2no[n+]([O-])c2c1,inactive: 15.5%
11,CCOP1(=S)c2c(C)nn(CCC#N)c2N=C(c2ccccc2F)N1C (stereo not drawn),inactive: -0.7%
12,O=P(Nc1nccs1)(c1ccccc1)c1nc2ccccc2s1 (stereo not drawn),inactive: -2.2%
13,O=P(Nc1nccs1)(Oc1ccccc1)Oc1ccccc1,inactive: 0.5%
14,Nc1ccccc1[As](=O)(O)c1ccccc1,inactive: 1.8%
15,O=C(O)COc1ccc([As](=O)(O)O)cc1[N+](=O)[O-],inactive: 0.85%
16,NC(=O)Nc1ccc([As](=O)(O)O)cc1,inactive: 17.5%
17,O=[N+]([O-])c1ccc2c(c1)nnn2O,inactive: 0.9%
18,CN(C(=O)Cc1ccccc1)[C@@H]1CC[C@]2(CCCO2)C[C@H]1N1CCCC1,inactive: -1.6%
19,CCOP1(=S)c2c(C)nn(CCC#N)c2N=C(c2ccc(F)cc2)N1C (stereo not drawn),inactive: -1.8%

# Reference: PubChem BioAssay AID1817 (Sanford-Burnham Center for Chemical Genomics, 2009)
